From PubChem BioAssay
Hits are enriched below; roughly 2% of the tested compounds scored in any of these assays.
Rango complex inh – inhibitors of Rango-importin beta complex formation. Potency, µM (doses to about 92.2 µM), for the others: at the highest dose inhibition of complex formation. Q14974. AID 540263. Rango CFP/YFP FRET sensor + importin beta, 45 min. 340,000 compounds, 0.031% hits; calls by dose curve;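 note: 0% = DMSO wells and 100% = buffer wells lacking importin beta; nearly all actives have a fitted effect of over 15% in size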
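FRET biosensor Rango (snurportin 1 IBB between N-terminal EYFP and C-terminal Cerulean), 50 nM in PBS/1 mM DTT/0.02% Tween-20/0.1% BSA, preincubated 5 min RT with compound; 0.125 microM importin beta added, 45 min RT, CFP/YFP FRET ratio read.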
Rango dissoc inh – inhibitors of RanGTP-induced Rango-importin beta complex dissociation | O95149+P62826 | 340,000 compounds, 0.071% hits | Potency, µM (highest dose often 46.1 µM), without a hit: at the top dose activity change, negative = inhibition | Biochemical FRET Rango-importin beta, RanGTP-induced dissociation; calls by dose curve; note: % of control where 0% means no effect; nearly all actives have a fitted effect of over 45% in size
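Rango (0.1 uM)–importin beta (0.25 uM) complex; RanGTP-RCC1 trigger; 45 min RT; CFP/YFP FRET read.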
S-ASM inh – blocks human secretory acid sphingomyelinase; Potency, µM (series often up to 57.5 µM), without a hit: top-dose activity change, negative = inhibition, actives largely listed as inhibitors; 340,000 compounds, 0.006% hits; placental ASM, HMU-PC fluorogenic substrate, 60 min; P17405
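qHTS format. ASM enzyme prepared from human placenta hydrolyses the fluorogenic substrate HMU-PC0 (9 uM final) over 60 min at 37 °C after a 10 min compound preincubation.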
Abeta rescue – compounds reversing amyloid beta toxicity in yeast | yeast expressing A-beta42, growth rescue, OD600, 48 h; response scale: 0% DMSO, 100% iron-clioquinol control | Potency, µM (highest dose often 46.1 µM), actives largely listed as activators | 410,000 compounds, 0.063% hits; note: nearly all actives have a fitted effect of over 55% in size
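Growth rescue measured by 600 nm absorbance after 48 h yeast culture at 30 C with compound. Values normalized between DMSO and an equimolar ferric chloride plus clioquinol control.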
aSyn yeast inh – rescues yeast growth from alpha-synuclein toxicity; AID 652106; Yeast expressing alpha-synuclein, growth rescue, BacTiter-Glo, 24 h; 370,000 compounds, 0.14% hits; Potency, µM (titrated, usually from 46.1 µM), inactives show at the top dose growth rescue (activation), actives largely listed as activators; note: % of control where 0% means no effect; nearly all actives have a fitted effect of over 65% in size
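Screening used galactose-induced yeast with toxic alpha-synuclein levels, exposed to compound for 24 hr at 30 deg C. Cell growth, read with BacTiter-Glo luminescence, gave the measured signal.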
TDP43 rescue – inhibitors of TDP-43 toxicity in yeast. AID 652104. 410,000 compounds, 1.8% hits. TDP-43 expressing yeast growth rescue, BacTiter-Glo, 24 h. Potency, µM (doses to about 46.1 µM), inactives show at the top dose growth rescue (activation), actives largely listed as activators; note: % of control where 0% means no effect; nearly all actives have a fitted effect of over 50% in size
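Galactose-induced TDP-43 yeast, OD600=0.02, compound pinned; 24 hr, 30 deg C; BacTiter-Glo luminescence for growth. Inhibitors of TDP-43 toxicity read as activators.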
* hit, by the source's call; i = inactive; ? = inconclusive; · = no result; [ ] = another dose, or the depositor's remark. Unless noted, calls come from the whole dose curve; as a rule, active = well fitted curve in the direction sought with a large enough effect; inconclusive = small, poorly fitted or top-dose-only effect, or another doubt; inactive = no such curve, though single readings can be large; an effect the other way counts as inactive or inconclusive. Potency is the fitted concentration of half-maximal effect.

SMILES	Rango complex inh	Rango dissoc inh	S-ASM inh	Abeta rescue	aSyn yeast inh	TDP43 rescue
COC(=O)[C@H]1[C@H]2C[C@@H]3c4[nH]c5cc(OC)ccc5c4CCN3C[C@H]2C[C@@H](OC(=O)/C=C/c2cc(OC)c(OC)c(OC)c2)[C@@H]1OC	?	5.8µM*	0%	i	1%	?
COc1ccc2c(c[n+](C)c3c4cc5c(cc4ccc23)OCO5)c1OC	·	·	·	·	-10%	·
COc1cc2c(ccc3c4cc(OC)c(OC)cc4c[n+](C)c23)cc1O	1%	-13%	-13%	i	7%	11µM*
C[C@@H]1C(=O)O[C@H]2C[C@@]34[C@H]5C[C@@H](C(C)(C)C)[C@]36[C@@H](OC(=O)[C@@H]6O)O[C@@]4(C(=O)O5)[C@]21O	-4%	10%	-1%	i	-1%	-7%
Cc1ccc2c(C)c3ccc4ccccc4c3c[n+]2c1	?	2%	i	i	?	2.5µM*
Cc1ccc(C(=O)Nc2c(C(=O)Nc3ccc(C)c(C)c3)sc3nc(C)cc(C)c23)cc1	·	·	·	i	·	?
O=C1C=CC2C3C(=O)N(c4ccccc4)C(=O)C3C1N2Cc1ccccc1 (stereo not drawn)	-1%	1%	-3%	i	8%	13µM*
COc1cc([C@@H]2c3cc4c(cc3[C@@H](O)[C@H]3COC(=O)[C@H]23)OCO4)cc(OC)c1O	·	·	·	·	-6%	·
CCOC(=O)[C@]12Cc3cc(Cl)ccc3[C@H]1N(C)C(=O)c1cc(OC)ccc12	·	·	·	i	9%	22µM*
C=CCN1C(=O)/C(=C\c2ccc(N3CCOCC3)o2)C(=O)NC1=S	65µM*	7%	-5%	i	-18%	13%
COc1cc(O)c(C(=O)O)c(-c2cc(O)c(O)cc2C)c1	-1%	-18%	6%	?	14µM*	17%
Cc1ccc(NC(=O)COc2ccc(-c3nn(C)c(=O)c4ccccc34)cc2)cc1	·	·	·	i	·	?
Cc1ccc(NC(=O)CCSc2nnc(Cc3ccccc3)o2)cc1	1%	1%	-2%	i	5%	18µM*
CCOC(=O)CCCc1cc[c]([Sb](=[O])([OH])[OH])cc1	·	·	·	·	3%	·
N#Cc1cc2c(nc1SCC(=O)Nc1cccc(F)c1)C1CCN2CC1	·	·	·	i	-8%	17%
CN1CCc2nc(SCc3cccc(Br)c3)c(C#N)cc2C1	?	16µM*	44%	i	0%	18%
Cc1ccccc1-n1nc(C)c2c1NC(=O)CSC2c1ccc(Cl)cc1 (stereo not drawn)	·	·	·	i	·	18µM*
C[C@@H]1CN([C@H](C)CO)C(=O)CCCn2nncc2CO[C@@H]1CN(C)C(=O)Nc1ccc(N2CCCCC2)cc1	·	·	·	i	0%	4%
Cc1cc(C(=O)OCC(=O)Nc2ccc(F)cc2)c(C)n1C1CC1	-4%	11%	-2%	i	29%	35µM*
Nc1ccc2c3c(cccc13)-c1ccccc1-2	?	?	12%	i	-13%	11µM*
Cc1cc(O)c2c3c(c(=O)oc2c1)CCC(C)C3 (stereo not drawn)	?	3%	1%	i	-20%	0%
Cc1cc(O)c2c(c1)OC(C)(C)C1=C2CC(C)CC1 (stereo not drawn)	1%	-6%	-5%	i	22%	13µM*
Cc1cccc(-c2nc(CN3C(=O)CN=C(c4ccccc4)c4ccccc43)c(C)o2)c1	·	·	·	i	·	35µM*
Cc1oc(-c2ccccc2)nc1CN1C(=O)CN=C(c2ccccc2)c2ccccc21	-2%	-1%	0%	i	-7%	?
Cc1cc(=O)n2[nH]c(C)cc2n1	9%	32%	-2%	i	6%	8%
O=C(Oc1ccc2ccccc2c1)c1ccco1	1%	-8%	0%	i	-8%	11µM*
CCc1cc(=O)oc2cc(OC(=O)c3ccco3)ccc12	?	?	i	i	5%	19%
O=[N+]([O-])c1cc(C(F)(F)F)c(Cl)c([N+](=O)[O-])c1Nc1ncc(C(F)(F)F)cc1Cl	·	·	·	·	-82%	·
C=CCn1c(O)c(C(CC)=NCCC2=CCCCC2)c(=O)[nH]c1=O	0%	19%	-8%	i	·	18µM*
C=CCn1c(O)c(C(CC)=NCCCO)c(=O)[nH]c1=O	-1%	-3%	2%	i	-3%	-7%
Cc1ccc(S(=O)(=O)N(C)C[C@@H]2Oc3ncc(Br)cc3C(=O)N([C@H](C)CO)C[C@@H]2C)cc1	·	·	·	i	8%	6%
OC[C@H]1OC(O)C[C@@H](O)[C@@H]1O (stereo partly drawn)	0%	-12%	11%	i	10%	?
O=C(NCCc1ccccc1)[C@@H]1CC=C[C@@H]2CCN(Cc3ccc(Cl)c(Cl)c3)C(=O)[C@@H]21	0%	-8%	-8%	i	?	?
CCOc1ccc(/C=C/c2nc(C#N)c(NCc3ccccc3)o2)cc1	·	·	·	i	·	?
O=c1c2ccccc2[nH]c(=S)n1-c1cccc(C(F)(F)F)c1	·	·	·	i	?	6.3µM*
FC(F)(F)c1ccc2c(c1)ncn2C1CCN(Cc2nnnn2C2CCCCC2)CC1	-4%	2%	-3%	i	11%	27%
O=S(=O)(c1ccc(Cl)cc1)N1CCC(n2cnc3cc(C(F)(F)F)ccc32)CC1	-1%	5%	-13%	i	?	32µM*
CCCCC[C@H]1CCCCC[C@H](O)C[C@@H](O)[C@H](O)/C=C/C(=O)O1	·	·	·	i	2%	26%
c1ccc2c(c1)CSc1ccccc1N2	1%	3%	-1%	i	-5%	20µM*
S=C1Nc2ccccc2Sc2ccccc21	0%	-5%	-5%	i	21%	?
CC1(O)CCN2C(=O)CCc3cccc1c32 (stereo not drawn)	-2%	6%	-1%	i	-7%[1.84 µM]	13µM*
COC(=O)C1=C(c2ccc(-c3ccccc3)c(F)c2)C[C@@H]2CC[C@H]1N2C(=O)N1CCCC1	-1%	5%	-15%	i	-23%	25µM*
COC(=O)C1=C(c2ccc3ccccc3c2)C[C@@H]2CC[C@H]1N2C(=O)N1CCCCC1	0%	1%	-5%	i	0%	20µM*
COC(=O)C1=C(c2ccc(-c3ccccc3)c(F)c2)C[C@@H]2CC[C@H]1N2C(=O)N1CCCCC1	0%	6%	-17%	i	-21%	-1%

Sorted by length of the SMILES (smallest number first): 6 of the compounds above
SMILES	Rango complex inh	Rango dissoc inh	S-ASM inh	Abeta rescue	aSyn yeast inh	TDP43 rescue
S=C1Nc2ccccc2Sc2ccccc21	0%	-5%	-5%	i	21%	?
CC1(O)CCN2C(=O)CCc3cccc1c32 (stereo not drawn)	-2%	6%	-1%	i	-7%[1.84 µM]	13µM*
FC(F)(F)c1ccc2c(c1)ncn2C1CCN(Cc2nnnn2C2CCCCC2)CC1	-4%	2%	-3%	i	11%	27%
O=S(=O)(c1ccc(Cl)cc1)N1CCC(n2cnc3cc(C(F)(F)F)ccc32)CC1	-1%	5%	-13%	i	?	32µM*
COC(=O)C1=C(c2ccc3ccccc3c2)C[C@@H]2CC[C@H]1N2C(=O)N1CCCCC1	0%	1%	-5%	i	0%	20µM*
Cc1ccc(S(=O)(=O)N(C)C[C@@H]2Oc3ncc(Br)cc3C(=O)N([C@H](C)CO)C[C@@H]2C)cc1	·	·	·	i	8%	6%
